Data as given in US6528494B2 (priority 1996, dated 2003).

Chains of the proteins cited; added tags and fusions are not shown.
UniProt P30542, whole entry: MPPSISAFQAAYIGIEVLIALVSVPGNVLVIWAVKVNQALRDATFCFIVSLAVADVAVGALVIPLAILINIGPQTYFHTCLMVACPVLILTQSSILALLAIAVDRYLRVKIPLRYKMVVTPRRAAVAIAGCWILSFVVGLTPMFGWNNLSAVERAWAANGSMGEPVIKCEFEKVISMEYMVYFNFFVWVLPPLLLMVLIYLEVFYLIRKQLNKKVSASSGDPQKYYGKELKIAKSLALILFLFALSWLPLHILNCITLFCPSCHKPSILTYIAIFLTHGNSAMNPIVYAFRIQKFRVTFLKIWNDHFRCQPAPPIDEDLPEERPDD
UniProt P0DMS8, whole entry: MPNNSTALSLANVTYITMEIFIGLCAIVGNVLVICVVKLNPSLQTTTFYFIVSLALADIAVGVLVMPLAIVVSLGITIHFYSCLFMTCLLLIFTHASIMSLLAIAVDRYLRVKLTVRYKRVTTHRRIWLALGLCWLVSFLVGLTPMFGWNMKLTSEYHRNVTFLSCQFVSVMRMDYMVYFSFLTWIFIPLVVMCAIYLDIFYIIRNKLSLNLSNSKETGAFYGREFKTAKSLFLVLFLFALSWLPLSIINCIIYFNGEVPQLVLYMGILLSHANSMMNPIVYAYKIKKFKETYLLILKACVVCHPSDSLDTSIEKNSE

Tests used:
Format in all cases: cell-based
adenosine 1 receptor = adenosine 1 receptor (Homo sapiens, UniProt P30542); test: Agonist activity against adenosine 1 receptor (CHO cells, forskolin-enhanced cAMP/SPAP reporter); settings: CHO cells transfected with human receptor; forskolin-enhanced cAMP via SPAP; mean of all the versions tested
Protocol: (§1) (1) Agonist activity against adenosine 2a, adenosine 1 and adenosine 3 receptor subtypes.
(§2) The effect of test compounds was determined by their effects on basal levels of cAMP (A2a) or on forskolin-enhanced cAMP (A1 and A3) as reflected by changes in levels of SPAP.

adenosine 2a receptor = adenosine 2a receptor (Homo sapiens, UniProt P29274); test: Agonist activity against adenosine 2a receptor (CHO cells, cAMP/SPAP reporter); settings: CHO cells transfected with human receptor; basal cAMP via SPAP; mean of all the versions tested
Protocol: as §1, §2

adenosine 3 receptor = adenosine 3 receptor (Homo sapiens, UniProt P0DMS8); test: Agonist activity against adenosine 3 receptor (CHO cells, forskolin-enhanced cAMP/SPAP reporter); settings: CHO cells transfected with human receptor; forskolin-enhanced cAMP via SPAP; mean of all the versions tested
Protocol: as §1, §2

Q: For `CCn1nnc(C2OC(n3cnc4c(N)nc(NC(CO)Cc5ccccc5)nc43)C(O)C2O)n1` [Example 11, (2R,3R,4S,5R)-2-[6-Amino-2-(1S-hydroxymethyl-2-phenyl-ethylamino)-purin-9-yl]-5-(2-ethyl-2H-tetrazol-5-yl)-tetrahydro-furan-3,4-diol], which “A1 EC50 as a ratio of that of NECA” value (adenosine 1 receptor) is on record?
A: 38.1

Q: What about the “A2a EC50 as a ratio of that of NECA” value (adenosine 2a receptor) of the same molecule?
A: 0.109

Q: And the “A3 EC50 as a ratio of that of NECA” value (adenosine 3 receptor)?
A: >356
